Experimental data published in patent US8568745B2, “Water-soluble drug carrier and process for producing the same” (Kyushu University, National University Corporation, priority 2009, dated 2013).

System: B16 melanoma cells
Details: 0.10, 0.50, 1.0, 3.0 mg/mL in medium, 6 hours

sucrose laurate ester [L-1695]
cytotoxicity (cell viability relative to control): at low concentrations, also could be used to prepare a S/W preparation of low cytotoxicity
